Results taken from PubChem BioAssay AID485313 (National Center for Advancing Translational Sciences (NCATS), 2010).
The list shows a part of the results, in another mix than the full data. The source made the active and inactive calls. Calls follow the shape of the dose curve; as a rule, active = well fitted activation curve with a large enough effect; inconclusive = small, poorly fitted or top-dose-only effect; inactive = no such curve, though single readings can be large or run the other way.

Assay: qHTS Assay for NPC1 Promoter Activators;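 also: reporter is driven by a mutant NPC1 promoter; % of control where 0% means no effect; nearly all actives have a fitted effect of over 60% in size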
Settings: Huh7 NPC1 promoter luciferase reporter, 24 h; at 9.22 µM (top of the series)
With `COc1ccccc1OP(C)(=O)Nc1ccc(C)c(C)c1` (stereo unspecified) the activation was inactive: 1.36%. In the case of `COc1ccc(OP(C)(=O)Nc2ccccc2Br)cc1` (stereo unspecified), the activation is reported as inactive: -0.868%. In the case of `CCOC(=O)c1ccc(NP(C)(=O)Oc2ccc(Cl)cc2)cc1` (stereo unspecified), the activation is reported as inactive: -2.24%. For `CP(=O)(OC12CC3CC(CC(C3)C1)C2)OC12CC3CC(CC(C3)C1)C2`, the activation was inactive: -1.4%. In the case of `CC(C)(C)c1ccc(OP(C)(=O)O)cc1`, the activation is reported as inactive: 3.39%. In the case of `COc1ccccc1OP(C)(=O)Nc1ccccc1Br` (stereo unspecified), the activation is reported as inactive: -4.46%. For `CP(=O)(Nc1ccc(Cl)cc1)Oc1ccc(F)cc1` (stereo unspecified), the activation was inactive: -1.36%. For `CN(C)C(=O)c1c([N+](=O)[O-])cc([N+](=O)[O-])cc1[N+](=O)[O-]`, the activation was inactive: 0.286%. In the case of `CCN(CC)CC(O)COC(=O)C(O)(c1ccccc1)C1CCCCC1` (stereo unspecified), the activation is reported as inactive: -3.37%. In the case of `COc1ccc(OP(C)(=O)Nc2ccc(Br)cc2)cc1` (stereo unspecified), the activation is reported as inactive: 0.485%. For `COc1ccccc1OP(C)(=O)Nc1c(C)n(C)n(-c2ccccc2)c1=O` (stereo unspecified), the activation was inactive: -22%. For `O=C(OCCCN1CCCC1)C(O)(c1ccccc1)C1CCCCC1` (stereo unspecified), the activation was inactive: 2.42%. For `CP(=O)(Oc1ccccc1)N1CCOC1=O` (stereo unspecified), the activation was inactive: -2.25%. For `CCc1ccc(OP(C)(=O)Nc2cccnc2)cc1` (stereo unspecified), the activation was inactive: -5.39%. For `CCOC(=O)c1ccc(NP(C)(=O)Oc2ccc(OC)cc2)cc1` (stereo unspecified), the activation was inactive: 4.68%. In the case of `CCOP(C)(=S)SCC(=O)NC(C)C(=O)O` (stereo unspecified), the activation is reported as inactive: -1.98%. With `CP(=O)(Nc1ccc(SC(F)(F)F)cc1)Oc1ccc(Cl)cc1` (stereo unspecified) the activation was inactive: 0.864%. With `Cc1cccc(C)c1OP(C)(=O)Nc1ccc(SC(F)(F)F)cc1` (stereo unspecified) the activation was inactive: -4.45%. In the case of `CP(=O)(Oc1ccccc1)OC(c1ccccc1)C(F)(F)F` (stereo unspecified), the activation is reported as inactive: -1.09%. For `CCc1ccc(OP(C)(=O)N2CCN(c3ccc([N+](=O)[O-])cc3)CC2)cc1` (stereo unspecified), the activation was inactive: -0.899%. In the case of `CP(=O)(NC(=O)Nc1ccccc1)Oc1ccccc1` (stereo unspecified), the activation is reported as inactive: 7.75%. With `Cc1cc(C)cc(OP(C)(=O)Nc2ccc(SC(F)(F)F)cc2)c1` (stereo unspecified) the activation was inactive: -0.81%. With `CP(=S)(Nn1cnnc1)Oc1ccccc1` (stereo unspecified) the activation was inactive: -4.86%. With `CP(=O)(Nc1ccccc1Br)Oc1ccccc1` (stereo unspecified) the activation was inactive: -0.558%. In the case of `COc1ccccc1OP(C)(=O)Nc1ccccc1` (stereo unspecified), the activation is reported as inactive: 1.28%. With `COc1ccccc1OP(C)(=O)Nc1ccc(C)cc1` (stereo unspecified) the activation was inactive: -4.31%. In the case of `Cc1ccc(NP(C)(=O)Oc2ccccc2)c(C)c1` (stereo unspecified), the activation is reported as inactive: 19.5%. With `CCOC(=O)c1ccc(NP(C)(=O)Oc2ccccc2)cc1` (stereo unspecified) the activation was inactive: -1.63%. For `Cc1cc(C)cc(OP(C)(N)=O)c1` (stereo unspecified), the activation was inactive: 2.79%. With `COc1ccccc1OP(C)(=O)Nc1cc(Cl)ccc1C` (stereo unspecified) the activation was inactive: -4.71%. With `COc1ccc(OP(C)(=O)Nc2cccc(F)c2)cc1` (stereo unspecified) the activation was inactive: -2.35%. In the case of `O=[N+]([O-])c1cc([N+](=O)[O-])c(Nc2cccnc2)c([N+](=O)[O-])c1`, the activation is reported as inactive: 6.5%. For `O=[N+]([O-])c1ccc2c(c1)C=Nc1ccccc1O2`, the activation was inactive: -11.1%. For `CC(C)(C)c1ccc(OP(C)(=O)Nc2ccc(SC(F)(F)F)cc2)cc1` (stereo unspecified), the activation was inactive: -2.87%. With `Cc1cccc(C)c1OP(C)(N)=O` (stereo unspecified) the activation was inactive: -4.39%. In the case of `CCN(CC)CCCOC(=O)C(O)(c1ccccc1)c1ccccc1`, the activation is reported as inactive: 1.66%. For `Cc1ccc(C)c(NP(C)(=O)Oc2ccccc2)c1` (stereo unspecified), the activation was inactive: -0.276%. With `CP(=O)(Nc1cccc(Br)c1)Oc1ccccc1` (stereo unspecified) the activation was inactive: -4.55%. With `Cc1cc(C)cc(OP(C)(=O)Nc2ccccn2)c1` (stereo unspecified) the activation was inactive: -0.632%. For `COc1ccccc1OP(C)(=O)Nc1cccc(Br)c1` (stereo unspecified), the activation was inactive: 0.209%. In the case of `CCOC(=O)c1ccc(NP(C)(=O)Oc2cc(C)cc(C)c2)cc1` (stereo unspecified), the activation is reported as inactive: -3.93%. For `Cc1cc(C)cc(OP(C)(=O)Nc2ccc(C)cc2C)c1` (stereo unspecified), the activation was inactive: 0.156%. For `CC1=NCCc2c1[nH]c1ccccc21.O=[N+]([O-])c1cc([N+](=O)[O-])c(O)c([N+](=O)[O-])c1`, the activation was inactive: 1.88%. In the case of `CN1CCCCC1COC(=O)C1(O)c2ccccc2CCc2ccccc21` (stereo unspecified), the activation is reported as inactive: -0.13%. With `COc1ccccc1OP(C)(=O)Nc1c(C)cccc1C` (stereo unspecified) the activation was inactive: -0.682%. In the case of `CP(=O)(Nc1ccc(SC(F)(F)F)cc1)Oc1ccccc1` (stereo unspecified), the activation is reported as inactive: -5.2%. In the case of `CCCOc1ccc(NP(C)(=O)Oc2ccc(Cl)cc2)cc1` (stereo unspecified), the activation is reported as inactive: 1.98%. With `O=[N+]([O-])c1cc([N+](=O)[O-])c(Nc2nnnn2CCO)c([N+](=O)[O-])c1` the activation was inactive: -2.22%. For `CC1=C2N=C(C=C3N=C(C(C)=C4[N-][C@@](C)([C@@H]5N=C1[C@](C)(CCC(=O)NC[C@@H](C)OP(=O)([O-])O[C@H]1[C@@H](O)[C@@H](n6cnc7cc(C)c(C)cc76)O[C@@H]1CO)[C@H]5CC(N)=O)[C@@](C)(CC(N)=O)[C@@H]4CCC(N)=O)[C@@](C)(CC(N)=O)[C@@H]3CCC(N)=O)C(C)(C)[C@@H]2CCC(N)=O.[C-]#N.[Co+3]`, the activation was inactive: -20.7%. In the case of `Cc1nc2ccc3ccccc3c2s1.O=[N+]([O-])c1cc([N+](=O)[O-])c(O)c([N+](=O)[O-])c1`, the activation is reported as inactive: -3.62%. In the case of `O=[N+]([O-])c1cc([N+](=O)[O-])c(-n2nnc3ccccc32)c([N+](=O)[O-])c1`, the activation is reported as inactive: -5.63%.
